Data taken from article PMC5470632 (Oncogene, 2015).

Assay: GuHCl denaturation monitored by circular dichroism at 222 nM
Assay type: physicochemical
Settings: CD at 222 nM, two-state, relative to MDMX

B1: pTyr99 MDMX: chemically synthesized Tyr99-phosphorylated (24–108) MDMX (protein)
chain: INQVRPKLPLLKILHAAGAQGEMFTVKEVMHYLGQYIMVKQLYDQQEQHMVYCGGDLLGELLGRQSFSVKDPSPLYDMLRKNLVT
modifications: phosphotyrosine at 99
  stabilization of the protein by phosphorylation at Tyr99: 0.3 kcal/mol
